Experimental findings from patent US20070213359A1 (ACADIA Pharmaceuticals Inc., priority 2005, published 2007) are described below.

Amino acid sequences for entries named in this document (tags omitted).
UniProt Q92847, whole entry: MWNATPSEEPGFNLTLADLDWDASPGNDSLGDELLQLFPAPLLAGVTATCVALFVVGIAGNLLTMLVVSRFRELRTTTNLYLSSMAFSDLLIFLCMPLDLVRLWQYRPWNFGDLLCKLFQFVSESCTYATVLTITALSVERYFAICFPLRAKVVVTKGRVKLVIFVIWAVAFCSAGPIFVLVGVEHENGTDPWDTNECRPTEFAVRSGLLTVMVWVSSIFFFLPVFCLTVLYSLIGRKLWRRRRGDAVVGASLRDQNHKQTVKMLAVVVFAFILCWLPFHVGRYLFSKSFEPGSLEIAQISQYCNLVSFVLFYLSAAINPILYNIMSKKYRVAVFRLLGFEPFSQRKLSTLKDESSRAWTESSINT

Only a part of the results on these compounds is given; other tests are left out.

For the experiment, the target named is Ghrelin receptor (Homo sapiens, UniProt Q92847). As to the kind of experiment: Receptor Selection and Amplification Technology (R-SAT) assay. The class given is cell-based.

In the case of `COc1cccc2c(C(C)=O)cn(CCCN3CCC(n4c(=O)[nH]c5ccccc54)CC3)c12`, the “RSAT pIC50” value (negative logarithm of ligand concentration causing 50% inhibition of constitutive receptor response, transfected NIH3T3 cells, '—' not defined (nd used separately)) stood at 6.0. The “RSAT Eff(%)” value (percent inhibition at saturating ligand, normalized to reference ligand Substance P analog = 100%) is reported as 90%.
